# In article PMC3288656 (Biochemical pharmacology, 2012):
# The chains behind the UniProt entries cited, without tags or fusion partners.
# UniProt P47746, whole entry: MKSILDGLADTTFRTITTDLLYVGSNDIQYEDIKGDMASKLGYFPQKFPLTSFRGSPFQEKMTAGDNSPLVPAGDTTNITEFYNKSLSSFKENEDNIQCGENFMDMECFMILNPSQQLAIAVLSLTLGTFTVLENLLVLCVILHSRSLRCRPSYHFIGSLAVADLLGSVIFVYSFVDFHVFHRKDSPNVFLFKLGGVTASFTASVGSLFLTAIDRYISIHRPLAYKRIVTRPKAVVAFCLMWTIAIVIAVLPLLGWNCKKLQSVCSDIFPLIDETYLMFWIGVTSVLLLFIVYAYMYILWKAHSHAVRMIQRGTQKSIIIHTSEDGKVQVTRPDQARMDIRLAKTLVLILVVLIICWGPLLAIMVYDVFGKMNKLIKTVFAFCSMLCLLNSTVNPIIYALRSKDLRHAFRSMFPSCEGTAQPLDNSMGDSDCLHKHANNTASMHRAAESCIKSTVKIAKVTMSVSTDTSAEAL
# Values joined by “and” are separate entries in the source; they are usually repeats but may differ in a detail not shown here. Equal values may be shown once. Marks after values point to notes of the source that are not given here.
# Molecular target: CB1Rs (Mus musculus, UniProt P47746)
# Experiment: [35S]GTPγS binding assay
# Format: biochemical
structure (smiles),measurement,setting,value
"CCCCCc1cc(O)c2c(c1)OC(C)(C)[C@@H]1CCC(C)=C[C@@H]21 [Δ^9-THC, Δ^9-tetrahydrocannabinol, reference compound]",[35S]GTPγS Binding Emax,"concentration-effect curves, mouse brain homogenates, n=3–4",0.08 ± 0.01 ^c pmole/mg
same,[35S]GTPγS Binding,drug 1 μM,0.17 ± 0.01 pmol/mg
same,[35S]GTPγS Binding + O-2050 (1 μM),drug 1 μM co-incubated with CB1R antagonist O-2050 1 μM,0.06 ± 0.01 pmol/mg
same,[35S]GTPγS Binding,drug 10 μM (receptor-saturating),"0.08 ± 0.00 pmole/mg and 0.08 ±0.00 ^a, ^b pmole/mg"
